# AlphaSeq binding of Ab-14 light chain variants to a spike HR2 peptide

Antigen: PDVDLGDISGINAS, a 14-residue peptide of the SARS-CoV-2 spike HR2 region.

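Phage display of a naive human antibody library on the peptide gave the parent. Designed CDR sequences, proposed from the first random library and measured here. Their group label is 14L_Rand (Rand: our label for a block that the file lists under HC and that is probably the random mutants of the ten best first-round binders). The assay is AlphaSeq: two haploid yeast populations carry antibody and antigen on their surface. Pairs that bind mate more often; barcode pairs of the diploids are counted by sequencing. Read counts were normalised to the haploid input and turned into Kd by a linear fit to BCL2-family pairs of known affinity, for each replicate. There are six technical replicates.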

Ab-14 is the parent antibody, in scFv form: VH, then a 15-residue (Gly4Ser)3 linker, then VL. The heavy chain is unchanged in all variants.
VH: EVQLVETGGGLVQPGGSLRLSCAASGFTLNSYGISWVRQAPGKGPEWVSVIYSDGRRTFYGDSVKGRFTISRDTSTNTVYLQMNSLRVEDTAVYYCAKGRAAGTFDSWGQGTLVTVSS
VL: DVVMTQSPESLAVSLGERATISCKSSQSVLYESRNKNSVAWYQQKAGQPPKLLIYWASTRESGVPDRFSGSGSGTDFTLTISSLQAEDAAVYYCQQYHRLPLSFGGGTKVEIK

Positions count from residue 1 of the parent VL; V29F puts F in place of V.
The read-out is the apparent dissociation constant on a log10 scale (nM): the lower, the stronger.
Replicates are averaged; those with no signal do not enter the mean.
An entry "nd" has no value in the source: the pair was not observed among the diploids in that replicate. This suggests poor binding but is not conclusive.
Empty control strains, which show no peptide, gave a signal in 4% of pairings with all light chain designs; the median was 2.64 and 95% of these signals were weaker than 1.59. No background was subtracted. For each scFv, signals with the empty controls are counted beside the result, with their mean in brackets.
Of ten entries with the parent sequence, four were seen in most replicates (averages 0.34 to 2.37), three in one and three in none, so single entries are noisy.
Values of this round are not directly comparable with the first-round values of the same sequences.
In the paper, a design with two or fewer of six values counts as a poor binder.

| changes | log10 Kd (nM) by replicate | mean, log10 nM | control signals |
|---|---|---|---|
| V29F/S33N/W56G/P101T | nd nd nd nd 1.29 nd | 1.29 | 0/18 |
| K24L/Q27I/V29Y/V39P/A40G/W56E | nd nd nd nd nd nd | nd | 0/18 |
| K24C/Q27P/S28V/A40I/W56N/P101M | nd nd nd nd nd nd | nd | 0/18 |
| Y31F/W56D/A57Y/H98W | 0.39 0.14 0.15 -0.07 0.03 0.19 | 0.14 | 0/18 |
| S25Q/S26L/Q27Y/W56D | 0.90 0.51 1.11 0.42 0.01 0.55 | 0.59 | 1/18 (2.82) |
| K24N/V29W/L30K/W56G/A57L/S58N | 1.97 0.40 0.79 0.04 0.25 0.58 | 0.67 | 1/18 (3.28) |
| S25F/Q27N/N35T/W56N/A57L | 0.52 0.29 0.19 0.18 0.19 0.57 | 0.32 | 1/18 (2.94) |
| K24H/Q27C/W56N | 0.67 0.35 0.61 0.72 0.54 0.71 | 0.60 | 0/18 |
| K24H/Q27P/V29G/N35M/A40T/W56N/T59C | nd nd 4.02 2.22 nd nd | 3.12 | 4/18 (1.89) |
| L30V/Y31F/R34M/K36S/W56D/R99I | 1.88 nd 2.58 3.10 2.04 2.04 | 2.33 | 0/18 |
| Y31F/V39L/W56D/Q96M | 3.05 nd nd nd nd 2.32 | 2.68 | 1/18 (2.03) |
| S25F/N35T/W56N/L102S | -0.08 -0.20 -0.15 -0.19 -0.12 -0.12 | -0.14 | 1/18 (3.76) |
| K24H/Q27P/A40P/W56N/S58I | nd nd nd nd nd nd | nd | 0/18 |
| S25Q/S28E/Y31F/W56D | -0.41 -0.89 -0.90 -0.80 -0.66 -0.88 | -0.76 | 0/18 |
| S25F/N35T/W56N/A57W/H98E | 0.08 1.10 0.01 0.17 -0.29 0.21 | 0.21 | 0/18 |
| S26L/W56H/S62D/L102F | 0.40 0.38 0.46 0.34 0.54 0.53 | 0.44 | 3/18 (3.03) |
| K24S/S25F/N35T/V39Q/W56N/Q95L | 2.27 2.27 2.26 1.21 3.00 1.51 | 2.09 | 2/18 (2.89) |
| K24A/S25L/S26R/V29T/Y31A/K36N/W56G/Q96V/P101Y | nd nd nd nd nd nd | nd | 0/18 |
| S26G/Q27I/V29Y/W56E/Y97H | nd nd nd nd nd 2.71 | 2.71 | 0/18 |
| S25L/S26R/V29T/A57D | nd nd nd nd 2.20 3.76 | 2.98 | 1/18 (2.68) |
| S25F/S28K/S33H/N35T/W56N | 0.15 0.11 0.09 -0.07 0.09 0.17 | 0.09 | 5/18 (2.90) |
| Q27I/V29Y/L30T/W56E/E61V/Q95E | 0.27 0.03 0.03 0.11 0.23 -0.05 | 0.10 | 0/18 |
| S25F/N35T/K36F/W56N/R60E | 1.03 0.78 1.01 0.63 0.92 1.54 | 0.98 | 1/18 (3.48) |
| S25Q/W56D/Q95S/P101H | 0.33 0.41 0.44 0.29 0.56 0.15 | 0.36 | 2/18 (2.31) |
| V29F/N37Y/W56G/P101T | 0.59 0.84 1.47 1.11 0.94 1.05 | 1.00 | 0/18 |
| S26H/Y31F/E32W/A40V/W56D/L102Y | nd nd nd nd nd nd | nd | 1/18 (0.55) |
| S25L/S26R/V29T/Y97W | 0.75 0.79 0.60 0.30 0.61 0.48 | 0.59 | 0/18 |
| V29W/Y31K/W56G/E61Q | 0.27 -0.14 -0.29 -0.37 -0.21 -0.13 | -0.14 | 0/18 |
| S26D/E32L/W56N/S62D | 0.75 0.73 0.53 0.35 0.52 0.76 | 0.61 | 0/18 |
| Y31F/S33I/W56L/L102M | nd nd nd nd nd nd | nd | 0/18 |
| S26L/W56H/S62D/R99Q/L102W | nd 3.04 3.18 nd 3.07 nd | 3.10 | 2/18 (2.74) |
| Y31F/W56D/T59F/Q95S | 1.35 1.51 1.24 1.28 0.98 1.74 | 1.35 | 1/18 (2.97) |
| S26G/S28G/L30F/V39C/W56G/Y97T | nd nd nd 1.98 nd nd | 1.98 | 0/18 |
| V29W/V39Q/W56G/A57R | -0.07 -0.44 -0.22 -0.47 -0.28 -0.31 | -0.30 | 0/18 |
| K24H/Q27P/K36G/S38D/V39E/W56N | nd nd nd nd nd nd | nd | 1/18 (3.38) |
| Y31G/W56P | nd nd nd nd nd nd | nd | 0/18 |
| V29F/V39N/W56C | nd nd nd nd nd nd | nd | 0/18 |
| S25F/N35T/W56N/S62F | 0.11 0.00 -0.01 -0.22 0.04 0.03 | -0.01 | 2/18 (2.80) |
| V29W/Y31K/A40S/W56G/T59A | 0.83 0.60 0.42 -0.03 0.46 0.88 | 0.53 | 0/18 |
| S26L/V29I/W56H/R60Y/S62V | 0.19 0.00 0.10 -0.32 -0.25 0.08 | -0.03 | 2/18 (3.29) |

Excerpt, the final 4 entries:

| changes | log10 Kd (nM) by replicate | mean, log10 nM | control signals |
|---|---|---|---|
| V29F/V39N/W56C | nd nd nd nd nd nd | nd | 0/18 |
| S25F/N35T/W56N/S62F | 0.11 0.00 -0.01 -0.22 0.04 0.03 | -0.01 | 2/18 (2.80) |
| V29W/Y31K/A40S/W56G/T59A | 0.83 0.60 0.42 -0.03 0.46 0.88 | 0.53 | 0/18 |
| S26L/V29I/W56H/R60Y/S62V | 0.19 0.00 0.10 -0.32 -0.25 0.08 | -0.03 | 2/18 (3.29) |

From the AlphaSeq antibody data of Li et al. 2023 (doi:10.1038/s41467-023-39022-2), copy in the FLAb collection.